Target: T1, D3 receptors (Chlorocebus aethiops, UniProt P52703)
T1 construct: expressed in transfected cells; host or cells: COS cells
Assay: D3 receptor binding (displacement of 0.5 nM 3H-YM 09151-2)
Parameters: species or system African Green monkey
Settings: pellets of COS cells with recombinant D3, nonspecific binding with 1 mM spiperone
Method: Assay for D2 and D3 Receptor Binding Activity
Pellets of COS cells containing recombinantly produced D2 or D3 receptors from African Green monkey were used for the assays. The sample is homogenized in 100 volumes (w/vol) of 0.05 M Tris HCl buffer at 4° C. and pH 7.4. The sample is then centrifuged at 30,000 ×g and resuspended and rehomogenized. The sample is then centrifuged as described and the final tissue sample is frozen until use. The tissue is resuspended 1:20 (wt/vol) in 0.05 M Tris HCl buffer containing 100 mM NaCl.
Incubations are carried out at 48° C. and contain 0.4 ml of tissue sample, 0.5 nM ^3 H-YM 09151-2 and the compound of interest in a total incubation of 1.0 ml. Nonspecific binding is defined as that binding found in the presence of […] spiperone; without further additions, nonspecific binding is less than 20% of total binding. The binding characteristics of representative compounds of the invention for D2 and D3 receptor subtypes are shown in Table 2 for rat striatal homogenates.

Chains of the proteins cited; added tags and fusions are not shown.
UniProt P52703, whole entry: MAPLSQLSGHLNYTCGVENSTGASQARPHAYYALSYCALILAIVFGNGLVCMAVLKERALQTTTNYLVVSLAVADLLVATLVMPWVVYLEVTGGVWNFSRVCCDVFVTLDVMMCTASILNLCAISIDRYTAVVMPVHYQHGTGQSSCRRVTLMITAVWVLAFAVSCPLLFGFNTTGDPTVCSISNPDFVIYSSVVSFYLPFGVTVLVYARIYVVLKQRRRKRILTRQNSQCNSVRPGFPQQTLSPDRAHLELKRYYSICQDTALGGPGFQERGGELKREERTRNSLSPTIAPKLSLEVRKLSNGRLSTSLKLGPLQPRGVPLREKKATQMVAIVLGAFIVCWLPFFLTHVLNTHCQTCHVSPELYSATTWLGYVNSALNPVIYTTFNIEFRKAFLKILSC

For “N-(1-{4-[4-(2-Methylphenyl)piperazin-1-yl]}butyl)-2-anthraquinonecarboxamide hydrochloride [Compound 7]”, which Ki is on record?
The Ki was 1 nM.

— US5922879A, “N-aminoalkyl-2-anthraquinonecarboxamides: new dopamine receptor subtype specific ligands” (Neurogen Corporation, priority 1997, dated 1999)
